Experimental data taken from patent US9428431B2, “Compositions comprising CB receptor agonists, uses thereof and methods for their preparation” (Yissum Research Development Company of the Hebrew …, priority 2008, dated 2016).

The chains behind the UniProt entries cited, without tags or fusion partners.
UniProt P34972, whole entry: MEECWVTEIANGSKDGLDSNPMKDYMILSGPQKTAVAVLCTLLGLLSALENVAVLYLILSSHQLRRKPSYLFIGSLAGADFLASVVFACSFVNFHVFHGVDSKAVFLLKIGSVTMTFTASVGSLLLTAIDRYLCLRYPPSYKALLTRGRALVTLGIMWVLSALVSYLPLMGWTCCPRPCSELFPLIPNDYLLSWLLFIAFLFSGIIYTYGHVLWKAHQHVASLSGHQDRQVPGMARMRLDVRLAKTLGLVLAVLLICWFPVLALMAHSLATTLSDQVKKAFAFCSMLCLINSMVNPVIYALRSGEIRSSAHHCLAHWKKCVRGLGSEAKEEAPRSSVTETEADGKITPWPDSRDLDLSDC

Molecular target: T1, CB2 receptor (Homo sapiens, UniProt P34972)
T1 construct: expressed in transfected cells; host or cells: COS-7 cells
Test: CB2 receptor binding, [3H]HU-243 displacement, COS-7 cells transfected with CB2 cDNA
Procedure: For CB1 receptor binding, synaptosomal membranes were prepared from the brains of Sabra rats by homogenization and gradient centrifugation (Devane et al, 1992). For CB2 receptor binding assay, COS-7 cells were transfected with plasmids containing CB2 cDNA, and crude membranes were prepared (Munro et al, 1993).
Bound and free radioligands were separated by centrifugation. The data were normalized to 100% of specific binding, which was determined with 50 nM unlabeled HU-243.

CCCCCCC(C)(C)c1cc(OC)c([C@@H]2C=C(CO)C3CC2C3(C)C)c(OC)c1 (single isomer, unassigned; (-)) [HU-433, (−)-2-(3-myrtenyl)-5-dimethylheptyl resorcinol]
Ki: 12.2 nM
